The record followed here is the NIST ThermoML archive (doi:10.1021/acs.jced.9b00658).

The structures appear in SMILES notation. ± gives the expanded uncertainty stated by the source.

The conditions of data set [1]: Crystal; DSC.
Data set [2] can be described thus: Molar enthalpy of transition or fusion. The note with it: Crystal; DSC.

Turning to `COC(=O)c1ccc(C(=O)OC)cc1` [dimethyl 1,4-benzenedicarboxylate], in data set [1], the Triple point temperature is recorded as 413.88 ± 1 K. In addition, the “Molar enthalpy of transition or fusion” value in data set [2] is 6.73 ± 0.98 kcal/mol.
